Read-outs that look alike come from different tables or passages of the source.
System: T. gondii tachyzoites
Format: cell-based, Toxoplasma gondii
Conditions: CC50 (HFF)/EC50 (T. gondii)

## CCc1nc(N)nc(N)c1-c1ccc(Cl)cc1 [PYR, pyrimethamine, reference compound]
  SI (Selectivity index): 237.65
Listed as pyrimethamine
  SI (Selectivity index): > 10
